Experimental data taken from patent publication US5612329A (priority 1995, dated 1997).

Test system: pBR322 DNA
Test: DNA Cross-Linking Assay (agarose gel)
Format: biochemical
Details: vs 1.0 and 2.0 μM mechlorethamine, 5.0 and 10.0 μM melphalan

For `C(CCNCCCN1CC1)CNCCCN1CC1` [Synthesis Example 1, 1,12-Diaziridinyl-4,9-diazadodecane], the “cross-linking concentration compared with mechlorethamine and melphalan” value was “lower than that required for the two nitrogen mustard drugs, mechlorethamine and melphalan, to cross-link DNA”.
